Assay results as given in publication PMC8765435, “In Vitro Antimalarial Activity of Inhibitors of the Human GTPase Rac1” (Antimicrobial Agents and Chemotherapy, 2022).

What was measured:
[1] = tested on: P. falciparum asexual parasites, chloroquine-resistant W2 strain; details: 72 h
Experimental: (§1) Chloroquine (CQ)-sensitive (D10, wild-type 3D7, or transgenic 3D7elo1-pfs16-CBG99) and CQ-resistant (W2) strains of P. falciparum were cultured as described previously ([58]), with slight modifications, as detailed in the supplemental material.
(§2) Asexual parasite growth was determined spectrophotometrically (optical density at 650 nm [OD650]) by measuring the activity of parasite lactate dehydrogenase (pLDH), according to a modified version of the method of Makler et al. ([59]). Gametocyte viability was measured by a luminescence method described previously ([60]). Details for the two methods are reported in the supplemental material. From either the OD or ALU (arbitrary luminescence units), the percentages of viability were calculated according to the formula 100 × (treated sample signal − blank signal)/(untreated control signal − blank signal). The blank for the pLDH assay was uninfected RBCs at the same hematocrit as that of parasitized RBCs, and the blank for the luminescence assay was parasites treated with a high dose of methylene blue. […]
(§3) The CQ-sensitive (D10) and the CQ-resistant (W2) strains were maintained at 5% hematocrit […]
(§4) supplemented with 1% AlbuMaxII (lipid-rich bovine serum albumin) (Invitrogen), 0.01% hypoxantine (Sigma), 20mM Hepes (EuroClone), 2 mM glutamine (EuroClone). […]
(§5) In vitro P. falciparum drug susceptibility assay […]
(§6) plate were transferred to a plate containing 100µl of Malstat reagent (0.11% [vol/vol] Triton- […]
(§7) dinucleotide [APAD] [Sigma-Aldrich], adjusted to pH 9 with 1 M HCl) and 25 µl of PES/NBT […]
(§8) pLDHassay. The plate was read at a wavelength of 650 nm using a microplate reader, Synergy4 […]
(§9) Uninfected RBC at the same HCT than parasites were used as blank. […]

[2] = tested on: P. falciparum asexual parasites, chloroquine-sensitive D10 strain
Experimental: as §1, §2, §3, §4, §5, §6, §7, §8, §9

Rac-GEF interaction = tested on: Rac-GEF interaction; design: method as in PMID 11595749; details: Rac-GEF interaction in vitro; cited from earlier work

IC50 [1]: > 50 µM
IC50 ([2]; asexual parasites, chloroquine-sensitive D10 strain, 72 h): > 50 µM
SMILES: CSCC[C@H](N)C(=O)N[C@H](C(=O)N[C@@H](CC(=O)O)C(=O)NCC(=O)N[C@@H](CCCCN)C(=O)N1CCC[C@H]1C(=O)N[C@H](C(=O)N[C@@H](CC(N)=O)C(=O)N[C@@H](CC(C)C)C(=O)NCC(=O)N[C@@H](CC(C)C)C(=O)N[C@@H](Cc1c[nH]c2ccccc12)C(=O)N[C@@H](CC(=O)O)C(=O)N[C@H](C(=O)N[C@@H](C)C(=O)NCC(=O)O)[C@@H](C)O)C(C)C)C(C)C [Compound W56]
antimalarial activity (in words) ([2]; asexual and sexual P. falciparum parasites): no effect
IC50 (Rac-GEF interaction): 100 to 150 µM
